Earlier results, collected in patent US7709647B2, “Tetrahydroquinoline cannabinoid receptor modulators” (Bristol-Myers Squibb Company, priority 2005, dated 2010).

Details: chronic administration for two weeks

Cc1c(C(=O)NN2CCCCC2)nn(-c2ccc(Cl)cc2Cl)c1-c1ccc(I)cc1 [AM-251]
adipose tissue mass: decreased adipose tissue mass
